# Columns and labels:
# [1] = test system: MAS (methionine-alanine-serine) trimeric peptide
# [2] = test system: MGAQFSKT (MARCKS protein) octameric peptide
substance,measurement,setting,value
recombinant human methionine aminopeptidase type 1 (MetAP1) with N-terminal histidine tag,"baseline activity (turnover, no added metal)",[1],1.68 µM/min turnover at 120 nM MetAP1
same,baseline activity on MAS relative to MGAQFSKT,[1],14-fold higher baseline activity
same,"baseline activity (turnover, no added metal)",[2],0.51 µM/min turnover at 500 nM MetAP1
